## Yeast mating assay B: variants of the scFv Ab-14

From the AlphaSeq antibody data of Li et al. 2023 (doi:10.1038/s41467-023-39022-2), copy in the FLAb collection.

Antigen: PDVDLGDISGINAS, a 14-residue peptide of the SARS-CoV-2 spike HR2 region.

Parent: Ab-14, a human scFv built as VH, a 15-residue (Gly4Ser)3 linker, VL. Only the CDRs of the light chain vary.
VH: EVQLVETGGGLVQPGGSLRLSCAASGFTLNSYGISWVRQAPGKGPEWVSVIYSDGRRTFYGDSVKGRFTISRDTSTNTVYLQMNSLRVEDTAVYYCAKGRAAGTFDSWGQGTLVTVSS
VL: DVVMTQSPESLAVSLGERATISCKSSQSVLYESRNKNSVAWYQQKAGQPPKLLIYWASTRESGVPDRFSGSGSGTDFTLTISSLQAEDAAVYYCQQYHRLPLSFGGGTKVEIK

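Phage display of a naive human antibody library on the peptide gave the parent. Designed CDR sequences, proposed from the first random library and measured here. Group labels follow the data file (Ctrl: baseline library sampled from a position-specific scoring matrix, with some repeated check sequences; En: ensemble of fine-tuned language models; GP: Gaussian process model; HC: hill climbing; Gen: genetic algorithm; Gibbs: Gibbs sampling; a sequence that several methods proposed may carry one label only). The scFvs were displayed on barcoded MATa yeast, the peptide on MATalpha yeast. The frequency of each diploid, read from paired DNA barcodes, reflects how well the two displayed proteins bind. Scores were corrected for input abundance and mapped to Kd with protein pairs of known affinity run in the same pool. Each pool was mated in six replicate cultures.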

Variants are written as CDR1, CDR2 and CDR3 of the light chain (limits as in the source). Parent: KSSQSVLYESRNKNSVA, WASTRES, QQYHRLPLS.
Kd is apparent (estimated from mating counts) and averaged on the log scale over replicates with a signal. Smaller is tighter.
Where no diploid with the target was found in any replicate, the entry reads "no signal": below detection, most likely a poor binder, though not proof of it.
Nonspecific signal, from three strains lacking the peptide, appeared in 4% of pairings of all light chain designs, centred on 430 nM (5% of these signals below 38 nM); values are not corrected for it.

| CDR-L1 | CDR-L2 | CDR-L3 | group | apparent Kd | detected |
|---|---|---|---|---|---|
| KLSESVLYESRNKNSVA | NASTRES | QQYHRLPLS | GP_Gen | 520 pM | 6 of 6 |
| KIQELHYFDSEGEWNVA | DANISVL | QDYFRLPLS | En_Gibbs | no signal | 0 of 6 |
| MFSQLFMYGSRNYNSVA | QASTREQ | QQYHRLPLI | En_HC | 54 nM | 1 of 6 |
| KSKQSVLYESRNKNSVA | WASTRES | QQYHRLPLS | Ctrl | no signal | 0 of 6 |
| KLEQSQGYESRNKNSVA | NASQRES | QQYHRLPLS | GP_Gen | 12 nM | 6 of 6 |
| KLQMSNLYESRMHNSVA | DASVRES | QQYHRLPLS | GP_Gibbs | 940 pM | 6 of 6 |
| KLSQSWLYEDRNKNSVA | NASQRES | QQYHRLPLS | GP_Gen | 820 pM | 6 of 6 |
| KCSQSVLQESRNKNSVA | EASQRES | QQYHRLPLS | GP_Gibbs | 700 pM | 6 of 6 |
| KSSQSVLYESRNKHSVA | WASTRES | QQYFRLPLS | Ctrl | 61 nM | 6 of 6 |
| KSSQGFLYENRNKNSVA | SASQRES | QQYHRLPLS | GP_Gibbs | 3.3 nM | 6 of 6 |
| KLSQSDLYESRNKNSVA | EASTRES | QAYHRLPLS | GP_Gen | 1.0 nM | 6 of 6 |
| KLPNSTLYESRMKNSVA | NASTRES | QQYHRLPLS | GP_HC | 2.2 nM | 6 of 6 |
| KLRLHNLDFYEVENSIA | GESMRAH | QQYYRLPLN | En_Gibbs | 36 nM | 6 of 6 |
| KVSQSFLYESRNKNAVA | GASTRES | QQYHRLPLS | GP_HC | 490 pM | 6 of 6 |
| KVSQSVLYESRMKNSVA | NASTRCS | QQYHRLPLS | GP_HC | 1.2 nM | 6 of 6 |
| MISDLTMYGSRSVNSVA | DLSTRGS | QQYDRLPLS | En_HC | 3.8 nM | 6 of 6 |
| KLSGATRLESQNKASVA | ENSTRGE | QQYFRLPLS | En_HC | 3.1 nM | 6 of 6 |
| NLSMHLLDATVKDMSIA | DAELSTM | QQYMRLPLS | En_Gibbs | 6.1 nM | 6 of 6 |
| KFSQSWLYESRNKNSVA | NASQRES | QQYHRLPLS | GP_Gen | 2.4 nM | 6 of 6 |
| QLSMITGHVSMSKNNVA | EMETREE | QQYDRLPLS | En_Gen | 24 nM | 6 of 6 |
| TLKMDKLPGQVNAYNIA | NAELVEN | QQYFHLPLY | En_Gibbs | 27 nM | 1 of 6 |
| KYSQSVVYDSRYKNSVA | WASTRES | QEYHRLKLS | Ctrl | 16 nM | 6 of 6 |
| ASSQSGLSESRNKNSVA | DASTRED | QQYHRLPLS | Ctrl | 950 pM | 6 of 6 |
| MLSQMWAIGQKVSNSVA | QVSTRFE | QQYDRLPLI | En_Gen | no signal | 0 of 6 |

Further variants, results first:

| apparent Kd | detected | CDR-L1 | CDR-L2 | CDR-L3 | group |
|---|---|---|---|---|---|
| 3.7 nM | 6 of 6 | KVEPSVQLEMRNKNSVA | SASTRES | QQYHRLPLS | GP_Gibbs |
| 4.4 nM | 6 of 6 | KLEDQMQTSIASDNSVA | DTNMGHE | QQYNRLPLV | En_Gibbs |
| 10 nM | 6 of 6 | KLSGIMRLESKNKSNIA | EVNERSE | QQYDRLPLS | En_Gen |
| 3.4 nM | 6 of 6 | HSSPSVAYESRNKNSVA | NASTRLS | QQYHRLPLS | GP_HC |
| 5.0 nM | 6 of 6 | KLSWTCTGDLNQMHSVA | ESTVAVD | QQYAHLPLS | En_Gibbs |
| 2.1 µM | 4 of 6 | RLSALSGIQSVERNSVA | QNSTREE | QQYDHLPLS | En_Gen |
| 3.0 nM | 6 of 6 | KLEWSNLYESRNCNSVA | NASTREE | QQYHRLPLS | GP_Gibbs |
| 540 pM | 6 of 6 | KMPQSYLYESRNKNSVA | NASTRES | QQYHRLPLS | GP_Gen |
| 43 nM | 6 of 6 | KISKSVLYESRNANSVA | WADTRES | QQYHRLPLS | Ctrl |
| 7.7 nM | 6 of 6 | KILQEIENQSYNRNSVA | HSTTRED | QSYHRLPLS | En_HC |
| 7.1 nM | 6 of 6 | KSSVSVLYESRNSNSVA | WASTREA | QQYHRLPLY | Ctrl |
| 29 nM | 6 of 6 | KSSQSVLFESRDKNSVA | WASTRES | QQYHRLPLS | Ctrl |
| 720 pM | 6 of 6 | KQSQDWLYEGTNKNSVA | EASTRES | QQYHRLPLS | Ctrl |
| 3.8 nM | 5 of 6 | KSSQSVLYESINKNSVA | AASTRES | QQYHRLPLS | Ctrl |
| 3.1 nM | 6 of 6 | KSSQSVLDESRNKNSVA | HASTRES | QQYSRLALS | Ctrl |
| 1.7 nM | 6 of 6 | KRSQSVLYESENKNSVA | QASQRES | QQYHRLPLS | Ctrl |
| 1.7 nM | 3 of 6 | KSSQSLLYESRNKNSVA | SASTRES | QQYHRLPLS | Ctrl |
| 9.2 nM | 6 of 6 | KLTTQVGHQMDHKNSIA | EVDMVAQ | QQYMHLPLI | En_Gibbs |
| 20 nM | 4 of 6 | TISQMTSWMSNKKNNVA | EVTTREA | QQYDRLPLA | En_Gen |
| 78 nM | 2 of 6 | TLYGLSNSSSINKNSVA | EMTTRED | QQYDRLPLV | En_Gen |
| 2.7 nM | 6 of 6 | SIGGFMKSLSAHMNSVA | DMTNRED | QQYDRLPLS | En_Gen |
| 240 nM | 5 of 6 | TISQSTYWESRNKNSVA | QTSTRLE | QDYDRLPLS | En_HC |
| 80 nM | 6 of 6 | ILSQSVLMGMHTKNSVA | QATMRFN | QQYNRLPFM | En_HC |
| 18 nM | 6 of 6 | MIAGSLESQEANQAPVA | SATCREP | QQYSQLPLM | En_Gibbs |
| 270 nM | 6 of 6 | QVQYAPGESLRSTQSIA | DVNIKDM | QQYARLPLS | En_Gibbs |

The opening 6 entries, copied out:

| CDR-L1 | CDR-L2 | CDR-L3 | group | apparent Kd | detected |
|---|---|---|---|---|---|
| KLSESVLYESRNKNSVA | NASTRES | QQYHRLPLS | GP_Gen | 520 pM | 6 of 6 |
| KIQELHYFDSEGEWNVA | DANISVL | QDYFRLPLS | En_Gibbs | no signal | 0 of 6 |
| MFSQLFMYGSRNYNSVA | QASTREQ | QQYHRLPLI | En_HC | 54 nM | 1 of 6 |
| KSKQSVLYESRNKNSVA | WASTRES | QQYHRLPLS | Ctrl | no signal | 0 of 6 |
| KLEQSQGYESRNKNSVA | NASQRES | QQYHRLPLS | GP_Gen | 12 nM | 6 of 6 |
| KLQMSNLYESRMHNSVA | DASVRES | QQYHRLPLS | GP_Gibbs | 940 pM | 6 of 6 |

The parent sequence was in this pool as ten entries: three were never detected, three once, and four in most replicates, with averages from 2.2 nM to 240 nM.
The authors' rule: three or more of the six replicates give a measured affinity, fewer mean a poor binder.
A sequence measured in both rounds can read differently, since the two assays cover different ranges.